Data: EP0738149B1, “1-AMINOINDAN DERIVATIVES AND COMPOSITIONS THEREOF” (priority 1994, dated 1995)
Values joined by “and” are separate entries in the source; they are usually repeats but may differ in a detail not shown here. Identical values can stand only once. Like-named read-outs stand apart in the source and are kept apart here.

Assays:
[1] = system: rats; assay: Closed head injury in rats: brain oedema (water content), Experiments 4A-4E; assay type: in vivo
[2] = system: hypoxic rat; assay: α-MpT-induced hypokinesia in hypoxic rat (locomotor activity), Experiments 1A-1C; conditions: Mean ± SEM
[3] = system: mice; assay: Maximal electroshock (MES) model in mice, i.p.;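 also: Electroshock-induced convulsion model serving to demonstrate antiepileptic efficacy against generalized and partial seizures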; assay type: in vivo; conditions: Mus musculus, ip, Table 15
[4] = system: mice; conditions: Mus musculus, ip, read-out: MICE scMet ED50
[5] = system: rats; conditions: Rattus norvegicus, po, read-out: RATS scMet ED50
[6] = Neurotoxicity in mice (rotorod ataxia test), i.p.; conditions: mouse, in vivo, ip
[7] = system: mice; assay: Neurotoxicity in mice (rotorod ataxia test), i.p.; conditions: mice, i.p.; Table 16
[8] = system: rats; assay: Neurotoxicity in rats (positional sense test and gait stance test), p.o.; conditions: Table 16
[9] = in vivo; conditions: rat, po
[10] = Exp 4A, 0.1mg/kg i.p. at 0,4,8 and 12 hours post-trauma, 24 hours
[11] = Exp 1A, 0.5mg/kg/Day gavage 70-80 days, α-MpT 100mg/kg i.p., Hour 1
[12] = Exp 1A, 0.5mg/kg/Day gavage 70-80 days, α-MpT 100mg/kg i.p., Hour 2
[13] = Exp 1A, 0.5mg/kg/Day gavage 70-80 days, α-MpT 100mg/kg i.p., Hour 3
[14] = Exp 1A, 0.5mg/kg/Day gavage 70-80 days, α-MpT 100mg/kg i.p., Hour 4
[15] = Exp 1A, 0.5mg/kg/Day gavage 70-80 days, α-MpT 100mg/kg i.p., Hour 5
[16] = Exp 1A, 0.5mg/kg/Day gavage 70-80 days, α-MpT 100mg/kg i.p., Hour 6
[17] = Exp 1A, 0.5mg/kg/Day gavage 70-80 days, α-MpT 100mg/kg i.p., Hour 7
[18] = Exp 1A, 0.5mg/kg/Day gavage 70-80 days, α-MpT 100mg/kg i.p., Hour 8
[19] = Exp 1A, 0.5mg/kg/Day gavage 70-80 days, α-MpT 100mg/kg i.p., Hour 10
[20] = Exp 1B, 0.3 mg/Kg daily i.p. 21 days, α-MpT 70 mg/Kg, Hour 1
[21] = Exp 1B, 0.3 mg/Kg daily i.p. 21 days, α-MpT 70 mg/Kg, Hour 2
[22] = Exp 1B, 0.3 mg/Kg daily i.p. 21 days, α-MpT 70 mg/Kg, Hour 3
[23] = Exp 1B, 0.3 mg/Kg daily i.p. 21 days, α-MpT 70 mg/Kg, Hour 4
[24] = Exp 1B, 0.3 mg/Kg daily i.p. 21 days, α-MpT 70 mg/Kg, Hour 5
[25] = Exp 1B, 0.3 mg/Kg daily i.p. 21 days, α-MpT 70 mg/Kg, Hour 6
[26] = Exp 1B, 0.3 mg/Kg daily i.p. 21 days, α-MpT 70 mg/Kg, Hour 7
[27] = Exp 1B, 0.3 mg/Kg daily i.p. 21 days, α-MpT 70 mg/Kg, Hour 8
[28] = Exp 1B, 0.3 mg/Kg daily i.p. 21 days, α-MpT 70 mg/Kg, Hour 9
[29] = Exp 1B, 0.3 mg/Kg daily i.p. 21 days, α-MpT 70 mg/Kg, Hour 10

N[C@@H]1CCc2ccccc21 [R-AI, (R)-1-aminoindan]
% water in the brain [1, 10]: 81.5±0.5 % | % water in the brain ([1]; Exp 4C, 0.03 mg/kg): 81.0±0.7% | % water in the brain ([1]; Exp 4C, 0.1 mg/kg): 81.8±0.6% | % water in the brain ([1]; Exp 4C, 0.3 mg/kg): 81.8±0.7% | % water in the brain ([1]; Exp 4C, 1.0 mg/kg): 81.5±0.5% | % water in the brain ([1]; Exp 4C, 3.0 mg/kg): 81.9±0.7% | % water in the brain ([1]; Exp 4D, 1mg/kg, times of administration 0): 81.2±0.6% | % water in the brain ([1]; Exp 4D, 1mg/kg, times of administration 0 + 4h): 81.2±0.4% | % water in the brain ([1]; Exp 4D, 1mg/kg, times of administration 0 + 8h): 81.8±0.5% | % water in the brain ([1]; Exp 4D, 1mg/kg, times of administration 0 + 12h): 80.7±0.5% | % water in the brain ([1]; Exp 4D, 1mg/kg, times of administration 0,4,8,12h): 81.5±0.5% | % water in the brain ([1]; Exp 4E, 1mg/kg given + 1h post head trauma): 81.7±0.4% | % water in the brain ([1]; Exp 4E, 1mg/kg given + 2h post head trauma): 82.5±0.4% | % water in the brain ([1]; Exp 4E, 1mg/kg given + 3h post head trauma): 81.8±0.5% | Locomotor activity after α-MpT treatment, recorded as big movements [2, 11]: 109 ± 27% | Locomotor activity after α-MpT treatment, recorded as total movements [2, 11]: 67 ± 8% | Locomotor activity after α-MpT treatment, recorded as big movements [2, 12]: 125 ± 29% | Locomotor activity after α-MpT treatment, recorded as total movements [2, 12]: 79 ± 12% | Locomotor activity after α-MpT treatment, recorded as big movements [2, 13]: 151 ± 36% | Locomotor activity after α-MpT treatment, recorded as total movements [2, 13]: 198 ± 60% | Locomotor activity after α-MpT treatment, recorded as big movements [2, 14]: 165 ± 40% | Locomotor activity after α-MpT treatment, recorded as total movements [2, 14]: 196 ± 17% | Locomotor activity after α-MpT treatment, recorded as big movements [2, 15]: 254 ± 55% | Locomotor activity after α-MpT treatment, recorded as total movements [2, 15]: 138 ± 19% | Locomotor activity after α-MpT treatment, recorded as big movements [2, 16]: 201 ± 50% | Locomotor activity after α-MpT treatment, recorded as total movements [2, 16]: 77 ± 17% | Locomotor activity after α-MpT treatment, recorded as big movements [2, 17]: 201 ± 50% | Locomotor activity after α-MpT treatment, recorded as total movements [2, 17]: 173 ± 30% | Locomotor activity after α-MpT treatment, recorded as big movements [2, 18]: 89 ± 23% | Locomotor activity after α-MpT treatment, recorded as total movements [2, 18]: 104 ± 18% | Locomotor activity after α-MpT treatment, recorded as total movements ([2]; Exp 1A, 0.5mg/kg/Day gavage 70-80 days, α-MpT 100mg/kg i.p., Hour 9): 95 ± 16% | Locomotor activity after α-MpT treatment, recorded as big movements [2, 19]: 190 ± 34% | Locomotor activity after α-MpT treatment, recorded as total movements [2, 19]: 114 ± 41% | Locomotor activity after α-MpT treatment, recorded as big movements [2, 20]: 96 ± 18% | Locomotor activity after α-MpT treatment, recorded as total movements [2, 20]: 80% and 80 ± 15% | Locomotor activity after α-MpT treatment, recorded as big movements [2, 21]: 97 ± 16% | Locomotor activity after α-MpT treatment, recorded as total movements [2, 21]: 87 ± 13% | Locomotor activity after α-MpT treatment, recorded as big movements [2, 22]: 117 ± 45% | Locomotor activity after α-MpT treatment, recorded as total movements [2, 22]: 132 ± 25% | Locomotor activity after α-MpT treatment, recorded as big movements [2, 23]: 91 ± 11% | Locomotor activity after α-MpT treatment, recorded as total movements [2, 23]: 115 ± 24% | Locomotor activity after α-MpT treatment, recorded as big movements [2, 24]: 67 ± 11% | Locomotor activity after α-MpT treatment, recorded as total movements [2, 24]: 65 ± 28% | Locomotor activity after α-MpT treatment, recorded as big movements [2, 25]: 58 ± 14% | Locomotor activity after α-MpT treatment, recorded as total movements [2, 25]: 76 ± 11% | Locomotor activity after α-MpT treatment, recorded as big movements [2, 26]: 68 ± 15% | Locomotor activity after α-MpT treatment, recorded as total movements [2, 26]: 65 ± 7% | Locomotor activity after α-MpT treatment, recorded as big movements [2, 27]: 34 ± 6% | Locomotor activity after α-MpT treatment, recorded as total movements [2, 27]: 40 ± 6% | Locomotor activity after α-MpT treatment, recorded as big movements [2, 28]: 84 ± 19% | Locomotor activity after α-MpT treatment, recorded as total movements [2, 28]: 72 ± 12% | Locomotor activity after α-MpT treatment, recorded as big movements [2, 29]: 44 ± 6% | Locomotor activity after α-MpT treatment, recorded as total movements [2, 29]: 69 ± 18% | ED50 [3]: 80 mg/kg | ED50 [4]: > 100 mg/kg | ED50 [5]: > 250 mg/kg

N[C@H]1CCc2ccccc21 [SAI, (S)-1-aminoindan]
% water in the brain [1, 10]: 84.0±0.8% | ED50 [3]: 18 mg/kg | ED50 [4]: > 60 mg/kg | ED50 [5]: > 250 mg/kg

C#CCN[C@H]1CCc2ccccc21.Cl [G, (S)-N-propargyl-1-aminoindan HCl salt]
TD50 [6]: > 500 mg/kg | MICE TD50 [7]: >500 mg/kg | RATS TD50 [8]: >500 mg/kg | TD50 [9]: > 500 mg/kg

C#CCN[C@@H]1CCc2ccccc21.CS(=O)(=O)O [F, (R)-N-propargyl-1-aminoindan mesylate salt]
TD50 [6]: > 300 mg/kg | MICE TD50 [7]: >300 mg/kg

C#CCN[C@@H]1CCc2ccccc21.Cl [E, (R)-N-propargyl-1-aminoindan HCl salt]
TD50 [6]: 153 mg/kg | MICE TD50 [7]: 153 mg/kg | RATS TD50 [8]: >50 mg/kg | TD50 [9]: > 50 mg/kg

C#CCN[C@H]1CCc2ccccc21.CS(=O)(=O)O [H, (S)-N-propargyl-1-aminoindan mesylate salt]
TD50 [6]: 141 mg/kg | MICE TD50 [7]: 141 mg/kg

NC1CCc2ccccc21 (racemic) [A, 1-aminoindan]
ED50 [3]: < 100 mg/kg | ED50 [5]: > 250 mg/kg
